Chains of the proteins cited; added tags and fusions are not shown.
UniProt P14416, whole entry: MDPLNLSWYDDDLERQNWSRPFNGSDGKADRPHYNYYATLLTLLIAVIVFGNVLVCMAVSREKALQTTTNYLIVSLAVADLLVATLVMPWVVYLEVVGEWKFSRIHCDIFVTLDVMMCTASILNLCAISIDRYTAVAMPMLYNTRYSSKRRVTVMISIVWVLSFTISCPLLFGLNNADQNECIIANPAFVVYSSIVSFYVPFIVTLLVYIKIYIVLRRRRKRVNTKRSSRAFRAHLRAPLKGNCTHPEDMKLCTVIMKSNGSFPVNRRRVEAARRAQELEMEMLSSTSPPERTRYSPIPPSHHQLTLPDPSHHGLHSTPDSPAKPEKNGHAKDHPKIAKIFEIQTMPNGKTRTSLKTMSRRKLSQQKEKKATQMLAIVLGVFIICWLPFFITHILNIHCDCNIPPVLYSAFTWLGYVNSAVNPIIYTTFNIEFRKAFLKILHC
UniProt P14416, whole entry V91A: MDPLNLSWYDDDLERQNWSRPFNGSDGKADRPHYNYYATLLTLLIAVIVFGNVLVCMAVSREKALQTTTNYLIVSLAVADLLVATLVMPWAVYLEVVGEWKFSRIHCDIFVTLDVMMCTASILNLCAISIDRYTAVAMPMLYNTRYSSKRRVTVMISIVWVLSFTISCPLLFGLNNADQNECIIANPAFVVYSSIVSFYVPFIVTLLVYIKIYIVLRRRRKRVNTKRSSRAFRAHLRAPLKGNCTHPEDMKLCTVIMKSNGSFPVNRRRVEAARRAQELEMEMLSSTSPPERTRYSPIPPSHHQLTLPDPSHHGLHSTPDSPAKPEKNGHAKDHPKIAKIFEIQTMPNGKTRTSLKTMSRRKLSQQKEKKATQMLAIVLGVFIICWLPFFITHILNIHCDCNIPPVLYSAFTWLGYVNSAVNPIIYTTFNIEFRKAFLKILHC
UniProt P14416, whole entry E95A: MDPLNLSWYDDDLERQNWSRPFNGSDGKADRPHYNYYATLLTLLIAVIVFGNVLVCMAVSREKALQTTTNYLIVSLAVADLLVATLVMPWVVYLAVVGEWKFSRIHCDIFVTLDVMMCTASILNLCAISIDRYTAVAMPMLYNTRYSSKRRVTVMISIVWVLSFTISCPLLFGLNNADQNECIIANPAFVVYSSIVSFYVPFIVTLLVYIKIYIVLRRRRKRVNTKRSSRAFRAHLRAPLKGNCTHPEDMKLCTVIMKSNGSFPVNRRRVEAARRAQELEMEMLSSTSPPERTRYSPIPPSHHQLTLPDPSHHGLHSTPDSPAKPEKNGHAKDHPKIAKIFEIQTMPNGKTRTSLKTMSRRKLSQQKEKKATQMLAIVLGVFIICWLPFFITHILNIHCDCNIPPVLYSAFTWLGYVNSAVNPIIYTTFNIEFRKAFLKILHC

According to PMC10823399 (Journal of medicinal chemistry, 2015):

What was measured:
Format in all cases: cell-based
D2LR = D2LR (Homo sapiens, UniProt P14416); experiment: ERK1/2 phosphorylation assay, interaction with dopamine; conditions: Table 5, Wild Type
Val91^2.61Ala D2R = Val91^2.61Ala D2R (Homo sapiens, UniProt P14416, V91A); experiment: ERK1/2 phosphorylation assay at mutant D2R
Glu95^2.65Ala D2R = Glu95^2.65Ala D2R (Homo sapiens, UniProt P14416, E95A); experiment: ERK1/2 phosphorylation assay at mutant D2R

Kb (D2LR; KB): 6 µM
Kb (D2LR; pKB): 6.17 µM
Kb (Val91^2.61Ala D2R): 85.1 µM
Kb (Glu95^2.65Ala D2R): 5.01 µM
Compound: CCCCNC(=O)c1cc2ccccc2[nH]1 [Compound 11d, N-Butyl-1H-indole-2-carboxamide]
